The values that follow are results of earlier work, collected in EP0005248A2, “Tetrapeptidehydrazide derivatives and process for their preparation” (Takeda Chemical Industries, Ltd., priority 1978, dated 1979).

On to H-Tyr-Gly-Gly-Phe-Leu-OH, for which the morphinomimetic action entry (directly administered by the intracerebral route) is “display a morphinemimetic action”. Also, where the note is “intravenous administration”, the analgesic action result is “do not have an analgesic action”.
